Measurements: PMC10573892, “β-Lactam TRPM8 Antagonists Derived from Phe-Phenylalaninol Conjugates: Structure–Activity Relationships and Antiallodynic Activity” (International Journal of Molecular Sciences, 2023)

Chains of the proteins cited; added tags and fusions are not shown.
UniProt Q8R455, whole entry: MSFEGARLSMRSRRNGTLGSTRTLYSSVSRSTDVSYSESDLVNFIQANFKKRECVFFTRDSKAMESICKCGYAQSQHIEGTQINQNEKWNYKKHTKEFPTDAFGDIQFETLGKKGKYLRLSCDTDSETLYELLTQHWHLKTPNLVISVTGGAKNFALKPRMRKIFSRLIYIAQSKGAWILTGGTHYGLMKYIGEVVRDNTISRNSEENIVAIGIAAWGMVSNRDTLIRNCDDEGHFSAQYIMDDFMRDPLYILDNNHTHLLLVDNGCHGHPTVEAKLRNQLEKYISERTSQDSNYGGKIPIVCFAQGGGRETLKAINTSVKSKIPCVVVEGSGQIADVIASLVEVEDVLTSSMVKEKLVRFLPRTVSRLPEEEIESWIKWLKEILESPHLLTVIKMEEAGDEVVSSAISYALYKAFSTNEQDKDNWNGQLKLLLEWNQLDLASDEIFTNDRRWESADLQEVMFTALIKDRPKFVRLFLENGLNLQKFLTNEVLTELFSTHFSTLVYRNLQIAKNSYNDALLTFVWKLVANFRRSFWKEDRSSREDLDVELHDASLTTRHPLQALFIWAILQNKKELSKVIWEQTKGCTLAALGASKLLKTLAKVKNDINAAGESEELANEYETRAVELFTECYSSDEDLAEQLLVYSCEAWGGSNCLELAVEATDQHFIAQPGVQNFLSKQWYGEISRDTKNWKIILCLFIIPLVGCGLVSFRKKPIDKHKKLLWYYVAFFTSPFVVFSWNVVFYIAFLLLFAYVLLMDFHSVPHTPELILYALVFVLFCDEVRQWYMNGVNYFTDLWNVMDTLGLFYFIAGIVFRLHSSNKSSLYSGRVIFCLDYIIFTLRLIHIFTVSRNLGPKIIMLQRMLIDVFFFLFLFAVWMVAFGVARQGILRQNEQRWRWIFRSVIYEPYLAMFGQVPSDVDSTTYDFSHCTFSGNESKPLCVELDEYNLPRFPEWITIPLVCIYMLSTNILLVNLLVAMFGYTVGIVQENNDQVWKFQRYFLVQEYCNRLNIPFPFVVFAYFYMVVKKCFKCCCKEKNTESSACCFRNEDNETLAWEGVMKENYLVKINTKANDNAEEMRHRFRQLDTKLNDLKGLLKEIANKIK

Molecular target: rat TRPM8 channel (rTRPM8) (Rattus norvegicus, UniProt Q8R455)
Assay: Ca2+ microfluorimetry, menthol-induced Ca2+ entry in HEK293 cells overexpressing rTRPM8
Conditions: Table 2; rTRPM8, HEK293, activation by 100 µM menthol

SMILES | IC50 [µM]
CC(C)CNC(=O)C1(Cc2ccccc2)CC(=O)N1C[C@H](Cc1ccccc1)NCc1cccc(F)c1 (stereo partly shown) | 5.15
CC(C)CNC(=O)C1(Cc2ccccc2)CC(=O)N1C[C@H](Cc1ccccc1)NCc1cccc([N+](=O)[O-])c1 (stereo partly shown) | 2.12
CC(C)CNC(=O)C1(Cc2ccccc2)CC(=O)N1C[C@H](Cc1ccccc1)NCc1cccc(I)c1 (stereo partly shown) | 3.83
CC(C)CNC(=O)C1(Cc2ccccc2)CC(=O)N1C[C@H](Cc1ccccc1)NCc1cccc(-c2ccccc2)c1 (stereo partly shown) | 2.03
CC(C)CNC(=O)C1(Cc2ccccc2)CC(=O)N1C[C@H](Cc1ccccc1)NCc1cccc(Oc2ccccc2)c1 (stereo partly shown) | 8.22
CC(C)CNC(=O)C1(Cc2ccccc2)CC(=O)N1C[C@H](Cc1ccccc1)NCc1cccc(C#N)c1 (stereo partly shown) | 12.1
CC(C)CNC(=O)C1(Cc2ccccc2)CC(=O)N1C[C@H](Cc1ccccc1)NCc1cccc(Br)c1 (stereo partly shown) | 3.3
COC(=O)C1(Cc2ccccc2)CC(=O)N1C[C@H](Cc1ccccc1)NCc1cccc(C)c1 (stereo partly shown) | 3.58
COC(=O)C1(Cc2ccccc2)CC(=O)N1C[C@H](Cc1ccccc1)NCc1cccc(Br)c1 (stereo partly shown) | 1.1
CC(C)CNC(=O)C1(Cc2ccccc2)CC(=O)N1C[C@H](Cc1ccccc1)NCc1ccc2ccccc2c1 (stereo partly shown) | 1.81
COC(=O)C1(Cc2ccccc2)CC(=O)N1C[C@H](Cc1ccccc1)NCc1ccccc1 (stereo partly shown) | 3.95
CC(C)CNC(=O)C1(Cc2ccccc2)CC(=O)N1C[C@H](Cc1ccccc1)NCc1cccc(Cl)c1 (stereo partly shown) | 2.57
CC(C)CNC(=O)C1(Cc2ccccc2)CC(=O)N1C[C@H](Cc1ccccc1)NCc1cccc(OCc2ccccc2)c1 (stereo partly shown) | 3.27
Cc1cccc(CN[C@@H](Cc2ccccc2)CN2C(=O)CC2(Cc2ccccc2)C(=O)NCC(C)C)c1 (stereo partly shown) | 3.97
CC(C)CNC(=O)C1(Cc2ccccc2)CC(=O)N1C[C@H](Cc1ccccc1)NCc1ccc(-c2ccccc2)cc1 (stereo partly shown) | 4.57
COC(=O)C1(Cc2ccccc2)CC(=O)N1C[C@H](Cc1ccccc1)NCc1ccc(C)cc1 (stereo partly shown) | 3.9
COc1cccc(CN[C@@H](Cc2ccccc2)CN2C(=O)CC2(Cc2ccccc2)C(=O)NCC(C)C)c1 (stereo partly shown) | 4.48
CC(C)CNC(=O)C1(Cc2ccccc2)CC(=O)N1C[C@H](Cc1ccccc1)NCc1ccc(F)cc1 (stereo partly shown) | 8.32
COC(=O)C1(Cc2ccccc2)CC(=O)N1C[C@H](Cc1ccccc1)NCc1ccc2ccccc2c1 (stereo partly shown) | 2.6
